Biological target: TβRII-Fc (TβRII extracellular domain fused to human IgG1 Fc) (human) (UniProt P37173)
Assay: SPR; Biacore 3000, CM5 chip with anti-human Fc mixed with anti-mouse Fc antibodies; TβRII-SE/Fc or TβRII-Fc captured to 100–140 RU; TGF-β1, -β2 or -β3 injected at 0.4 to 30 nM, 50 μl/min, association 90 s, dissociation 300 s (900 s for slow rates); 0.1% surfactant; double referencing; 1:1 binding model; stoichiometry from Rmax and mass ratios

Protein sequences, listed by entry. Tags and fused reporters are not part of them. Residues count along the entry.
UniProt P37173, 23-166: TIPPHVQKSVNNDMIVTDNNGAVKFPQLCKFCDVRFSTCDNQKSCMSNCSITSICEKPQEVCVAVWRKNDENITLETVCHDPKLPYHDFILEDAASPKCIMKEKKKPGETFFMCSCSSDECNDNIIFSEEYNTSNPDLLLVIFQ

TGF-β3 (ligand)
stoichiometry N (TGF-β dimer per bivalent Fc ligand): 1

Source: PMC8461249
